# Measured values as given in article PMC4113718.
# Amino acid sequences for entries named in this document (tags omitted).
# UniProt P61073, whole entry: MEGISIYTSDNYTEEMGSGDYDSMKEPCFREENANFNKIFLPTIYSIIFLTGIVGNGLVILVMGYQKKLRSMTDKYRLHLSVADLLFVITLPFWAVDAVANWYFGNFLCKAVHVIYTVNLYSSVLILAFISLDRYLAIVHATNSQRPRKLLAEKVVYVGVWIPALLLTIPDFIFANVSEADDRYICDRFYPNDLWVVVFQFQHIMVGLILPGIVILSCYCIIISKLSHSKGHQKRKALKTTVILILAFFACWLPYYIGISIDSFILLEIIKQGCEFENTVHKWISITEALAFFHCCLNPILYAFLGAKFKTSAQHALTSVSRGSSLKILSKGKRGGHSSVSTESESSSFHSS
# Molecular target: CXC chemokine receptor (CXCR) 4 on THP-1 cells (human (endogenous in THP-1)) (UniProt P61073)
"LogIC50 (pM), reduction of cAMP levels in forskolin-stimulated THP-1 cells","bottom plateau (%), reduction of cAMP levels in forskolin-stimulated THP-1 cells",Substance
2 log(pM),58.7%,Ub(1–74)DD (from UniProt P0CG47 1-76) (ligand)
2.6 log(pM),78.2%,Ub(1–74)GGY (from UniProt P0CG47 1-76) (ligand)
2.1 log(pM),–,Ub(1–74)RR (from UniProt P0CG47 1-76) (ligand)
2.1 log(pM),–,Ub(1–74)VV (from UniProt P0CG47 1-76) (ligand)
–,59.9%,ubiquitin (from UniProt P0CG47 1-76) (ligand)
